Experimental findings from PubChem BioAssay AID624136 (Broad Institute, 2012) are described below.

The structures appear in SMILES notation. This is a selection; strong and weak results do not stand in their true shares. Some salts or complexes appear as unconnected parts, following the source record. Activity calls are given as the source filed them.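 How the source made its calls: active means compounds whose four printed spots each glow above background more than chance allows, each with a p-value under 7%; inactive means the rest.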

This assay relates to mutant tumor protein p53 (GST-tagged), Homo sapiens. Nature of the assay: binders of human mutant p53, primary screen, biochemical, small molecule microarray, anti-GST fluorescence (AID 624136). As to conditions: small molecule microarray binding.
As for `C/C1=C2N=C(/C=C3N=C(/C(C)=C4\[N-][C@@](C)([C@@H]5N=C1[C@](C)(CCC(=O)NCC(C)OP(=O)(O)O[C@@H]1[C@H](O)[C@H](n6cnc7cc(C)c(C)cc76)O[C@H]1CO)[C@H]5CC(N)=O)[C@@](C)(CC(N)=O)[C@@H]4CCC(N)=O)[C@@](C)(CC(N)=O)[C@@H]\3CCC(N)=O)C(C)(C)[C@@H]/2CCC(N)=O.[C-]#N.[Co+3]` (stereo partly specified), the call was inactive.

`COc1ccc(CN2/C(=N\P(=O)(Oc3ccccc3)Oc3ccccc3)Cc3ccccc3C2C2CC2)cc1` (stereo unspecified): the result was inactive.

For the compound `COc1ccc(CN2/C(=N/P(=O)(Oc3ccccc3)Oc3ccccc3)CC(C)=CC2C)cc1` (stereo unspecified), the compound was called inactive.

For `C=CC1C=C(C)C/C(=N\P(=O)(Oc2ccccc2)Oc2ccccc2)N1Cc1ccc(OC)cc1` (stereo unspecified), the compound was called inactive.

Turning to `C/C1=C2N=C(/C=C3N=C(/C(C)=C4\[N-][C@@](C)([C@@H]5N=C1[C@](C)(CCC(=O)NC[C@@H](C)OP(=O)(O)O[C@H]1[C@@H](O)[C@@H](n6cnc7cc(C)c(C)cc76)O[C@@H]1CO)[C@H]5CC(N)=O)[C@@](C)(CC(N)=O)[C@@H]4CCC(N)=O)[C@@](C)(CC(N)=O)[C@@H]\3CCC(N)=O)C(C)(C)[C@@H]/2CCC(N)=O.[C-]#N.[Co+3]`, the outcome was inactive.

In the case of `CN(C(=O)Cc1ccc(Cl)c(Cl)c1)C1CCCCC1N1CCCC1` (stereo unspecified), the compound was classed as inactive.
